Results taken from article PMC11063762 (Molecular Cancer Therapeutics, 2024).
“Also recorded” adds a separate entry of the source.

Tests used:
[1] = Aqueous solubility of SDX-7320; format: physicochemical; settings: 25°C
HUVEC = HUVEC proliferation; format: cell-based, human; settings: 72 hours
In short: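 HUVEC were grown in EBM-2/EGM-2 with 2% FBS and 2X gentamicin, seeded at 5,000 cells/well and left overnight. Compounds were diluted in DMSO, then in the same medium (final DMSO 0.1%). After 72 h at 37°C, CellTiter 96 Aqueous One reagent was added for 3 h at 37°C and A490 read. The mean A490 of highest-concentration wells was subtracted, and IC50 came from a four-parameter variable-slope log(inhibitor)-response fit.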

[2] = Rat functional observation battery; format: in vivo; settings: 10 and 30 mg/kg, 36 hours postdose, not considered adverse
In short: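 Under GLP, male experimentally naïve CD [Crl:CD(SD)] rats, about 8 weeks old, received a single s.c. dose of 3, 10 or 30 mg/kg (ten/group). A functional observation battery was run pre-dose (day −1) and at 12 and 36 h post-dose. Mortality, clinical observations and body weights were also recorded.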

B16-F10 melanoma cells = test: B16-F10 syngeneic lung metastasis model; format: in vivo, mouse; settings: SDX-7320 25 mg/kg Q4D x 3, day 15
In short: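 Female C57BL/6NTac mice (8/group) received B16-F10 melanoma cells by tail vein. Cells were grown in DMEM with 5% FBS at 37°C under 5% CO2. Dosing began 24 h after injection: saline vehicle, test compound 25 mg/kg Q4D × 3, and a reference METAP2 inhibitor 30 mg/kg Q2D × 6. Lungs were excised on day 15 and visible metastases counted by stereomicroscope. Two-tailed Student t test.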

CNS exposure = format: in vivo; settings: rat, equimolar small molecule doses, measured near plasma Tmax
In short: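 Plasma and CSF levels of the small-molecule inhibitor were measured in rats after intravenous dosing of the polymer conjugate, the free inhibitor or a comparator inhibitor, all at equimolar small-molecule doses. CSF was sampled near plasma Tmax. For the rapidly metabolised comparator, its active metabolite (M-IV) was measured rather than the parent.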

A549 tumors = test: A549 non-small cell lung cancer xenograft model; format: in vivo, mouse; settings: 6, 60 mg/kg, Q4D
MDA-MB-231 tumors = test: MDA-MB-231 TNBC model in chick embryos; format: in vivo, chick embryo; settings: 15 and 90 μg, every 4D, two doses
In short: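 MDA-MB-231 cells were inoculated into fertilized White Leghorn eggs on embryonic day E9. From E11, embryos received vehicle, test compound (15 or 90 μg, every four days, two doses) or paclitaxel positive control (2.1 μg, every other day, four doses). Metastatic invasion into the lower chorioallantoic membrane was assessed. Tumors were dissected on E19.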

Glycine, N-(2-methyl-1-oxo-2-propen-1-yl)glycyl-L-phenylalanyl-L-leucyl-, 4-nitrophenyl ester, polymer with N-(2-hydroxypropyl)-2-methyl-2-propenamide, reaction products with (3R,4S,5S,6R)-5-methoxy-4-[(2R,3R)-2-methyl-3-(3-methyl-2-buten-1-yl)-2-oxiranyl]-1-oxaspiro[2.5]oct-6-yl N-(trans-4-aminocyclohexyl)carbamate [SDX-7320]
Aqueous solubility [1]: greater than 200 g/L | fold reduced potency relative to the small molecule inhibitors in HUVEC growth (HUVEC): > 500 fold | decrease in body weight gain relative to vehicle-treated animals [2]: < 5% | outgrowth of B16-F10 melanoma cells in the lungs relative to vehicle (B16-F10 melanoma cells): significantly inhibited the outgrowth; also recorded: equally efficacious as TNP-470 | CSF levels of SDX-7539, fold lower than the active metabolite of TNP-470 (M-IV) (CNS exposure): 17 fold | CSF levels of SDX-7539, fold lower compared with equivalent amount of free (unconjugated) SDX-7539 (CNS exposure; intravenous): > 50 fold | inhibition of A549 tumor growth relative to vehicle-treated controls (A549 tumors): significant, dose-dependent inhibition | MDA-MB-231 tumor growth relative to vehicle-treated tumors (MDA-MB-231 tumors): dose-dependent inhibition of tumor growth
